This is an account of results in the supplement of paper PMC12024424.

Each structure is given as a SMILES string. The list shows a part of the results, in another mix than the full data.

This experiment concerns Staphylococcus aureus Sa2 (MRSA, cystic fibrosis isolate). Briefly: growth reduction vs untreated control (OD550); higher = stronger antibacterial activity. Particulars: 0.1 mM; 24 h. On the procedure:
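Single-dose screen of the MedChem Express Drug Repurposing Library (0.1 mM, 1% DMSO) against planktonic MRSA S. aureus Sa2 (CF isolate) in TSB in 96-well plates, 37 °C aerobic, 24 h. Growth reduction is relative to the untreated inoculated control: OD550 of supernatant (blank-subtracted) and confirmation by viable CFU count. Assays were run in triplicate and repeated twice.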
Take `COc1cc(Br)c(C[N+]2(CCOCCC3CCC4CC3C4(C)C)CCOCC2)cc1OC` (stereo unspecified) [Pinaverium bromide]: the growth reduction is 100%.
